## Apparent affinities of Ab-91 variants for a coronavirus HR2 peptide

Antigen: PDVDLGDISGINAS, a 14-residue peptide of the SARS-CoV-2 spike HR2 region.

Parent: Ab-91, a human scFv built as VL, a (GGGGS)3 linker, VH. Only the CDRs of the heavy chain vary.
VL: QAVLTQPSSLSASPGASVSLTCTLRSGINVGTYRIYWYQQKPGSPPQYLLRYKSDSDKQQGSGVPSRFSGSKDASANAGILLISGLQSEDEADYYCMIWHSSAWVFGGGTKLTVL
VH: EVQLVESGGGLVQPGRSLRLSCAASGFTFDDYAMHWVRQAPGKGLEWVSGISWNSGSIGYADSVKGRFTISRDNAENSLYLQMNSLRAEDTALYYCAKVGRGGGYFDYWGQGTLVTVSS

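The starting antibody came from a phage panning campaign against this peptide. In library AAYL51, one, two or three CDR residues were substituted; doubles and triples were drawn at random. In AlphaSeq, yeast of one mating type display the scFv and yeast of the other type display the target. Pairs that bind mate more often; barcode pairs of the diploids are counted by sequencing. Each replicate has its own calibration line, from reference interactions of the BCL2 family. There are three technical replicates.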

Substitutions are numbered in sequence along the VH above, starting at 1 (not Kabat). Affinities are written as log10 Kd with Kd in nM; a lower number is a better binder. The mean shown is taken over the replicates in which the pair was detected. "ND" means that the variant was in the library but no mating with the target was seen in that replicate; the authors take this as a sign of poor binding, and no number exists.

changes	log10 Kd, replicates	mean, log10 nM	signal with controls
T28M D31S S52W	4.28 ND 3.40	3.84	5 of 9 (4.21)
D31Q Y108K	ND ND ND	ND	0 of 9
G100F D107Y	ND ND ND	ND	1 of 9 (4.19)
I51F Y60V F106R	5.07 ND ND	5.07	1 of 9 (4.48)
Y32G W53F V99M	4.36 6.62 5.04	5.34	6 of 9 (5.02)
G26M W53H I58P	ND ND ND	ND	0 of 9
D30A A33W G102R	ND 5.54 ND	5.54	1 of 9 (4.30)
A33T D62Y G100M	ND ND ND	ND	0 of 9
F29C S55D D107K	5.02 5.41 3.21	4.55	0 of 9
Y60R D62Y Y108D	4.79 ND 4.65	4.72	4 of 9 (5.17)
A33E M34V Y108Q	4.41 5.16 ND	4.78	7 of 9 (4.85)
W53S G103W D107H	ND ND ND	ND	0 of 9
G56Y G104D	2.02 2.05 1.44	1.84	1 of 9 (4.40)
N54G G59F G103C	3.74 ND ND	3.74	0 of 9
F27L D62R Y105P	4.79 ND ND	4.79	0 of 9
M34F S52E G103L	ND ND ND	ND	1 of 9 (2.58)
N54Q S55E F106K	4.38 ND ND	4.38	0 of 9
M34N Y105S	ND 4.34 4.58	4.46	2 of 9 (4.06)
D31S G104S F106N	ND ND ND	ND	1 of 9 (3.39)
K65Y V99Q Y105G	4.13 5.20 ND	4.67	3 of 9 (4.96)
A33P V64A Y108R	ND ND 4.93	4.93	2 of 9 (5.49)
Y32H W53T S55Q	ND ND ND	ND	2 of 9 (4.42)
T28E D62R V99K	4.76 ND ND	4.76	2 of 9 (3.60)
Y32A G56T Y108H	5.00 4.08 3.71	4.26	2 of 9 (4.40)
W53Q S63N G102P	ND ND 5.11	5.11	3 of 9 (4.57)
S52N G104L F106M	4.98 6.10 ND	5.54	6 of 9 (4.76)
Y60V G104D	1.91 2.00 0.78	1.56	1 of 9 (2.70)
F27N N54S S63N	ND ND ND	ND	0 of 9
G26Y G59D S63E	ND ND ND	ND	1 of 9 (4.23)
F27M I51W Y60D	ND 4.32 ND	4.32	3 of 9 (4.07)
I51F V64N G103L	5.60 ND 5.27	5.43	1 of 9 (5.33)
D30T H35F S57W	6.02 ND 5.50	5.76	5 of 9 (4.64)
G26H G56S V64R	ND ND ND	ND	1 of 9 (3.52)
I51A S57H G100D	ND ND ND	ND	1 of 9 (4.22)
Y60M Y105I D107P	2.14 2.18 2.08	2.13	1 of 9 (3.26)
T28E H35F Y105N	3.71 ND 5.61	4.66	4 of 9 (4.62)
F29I S57I K65P	5.30 ND ND	5.30	0 of 9

Repeated from above, the 6 best binders with a signal in all replicates:

| changes | log10 Kd, replicates | mean, log10 nM | signal with controls |
|---|---|---|---|
| Y60V G104D | 1.91 2.00 0.78 | 1.56 | 1 of 9 (2.70) |
| G56Y G104D | 2.02 2.05 1.44 | 1.84 | 1 of 9 (4.40) |
| Y60M Y105I D107P | 2.14 2.18 2.08 | 2.13 | 1 of 9 (3.26) |
| Y32A G56T Y108H | 5.00 4.08 3.71 | 4.26 | 2 of 9 (4.40) |
| F29C S55D D107K | 5.02 5.41 3.21 | 4.55 | 0 of 9 |
| Y32G W53F V99M | 4.36 6.62 5.04 | 5.34 | 6 of 9 (5.02) |

As a blank, each scFv also met three strains without target: over library AAYL51, 21% of these pairings were detected, typically at 4.54 and seldom below 3.26. The control count says in how many pairings with the empty strains this scFv gave a signal, with their mean in brackets.

Source: Engelhart et al. 2022 (doi:10.1038/s41597-022-01779-4), MIT Lincoln Laboratory and A-Alpha Bio; data file from the FLAb repository.